This passage reports Ki results from patent EP1140925B1, “(3,4 DIHYDRO-2H-BENZO[1,4] OXAZINYL-METHYL)- 3-(1H-INDOL-3- YL)-ALKYL -AMINES” (Wyeth, priority 1999, dated 2000).

The chains behind the UniProt entries cited, without tags or fusion partners.
UniProt P31652, whole entry: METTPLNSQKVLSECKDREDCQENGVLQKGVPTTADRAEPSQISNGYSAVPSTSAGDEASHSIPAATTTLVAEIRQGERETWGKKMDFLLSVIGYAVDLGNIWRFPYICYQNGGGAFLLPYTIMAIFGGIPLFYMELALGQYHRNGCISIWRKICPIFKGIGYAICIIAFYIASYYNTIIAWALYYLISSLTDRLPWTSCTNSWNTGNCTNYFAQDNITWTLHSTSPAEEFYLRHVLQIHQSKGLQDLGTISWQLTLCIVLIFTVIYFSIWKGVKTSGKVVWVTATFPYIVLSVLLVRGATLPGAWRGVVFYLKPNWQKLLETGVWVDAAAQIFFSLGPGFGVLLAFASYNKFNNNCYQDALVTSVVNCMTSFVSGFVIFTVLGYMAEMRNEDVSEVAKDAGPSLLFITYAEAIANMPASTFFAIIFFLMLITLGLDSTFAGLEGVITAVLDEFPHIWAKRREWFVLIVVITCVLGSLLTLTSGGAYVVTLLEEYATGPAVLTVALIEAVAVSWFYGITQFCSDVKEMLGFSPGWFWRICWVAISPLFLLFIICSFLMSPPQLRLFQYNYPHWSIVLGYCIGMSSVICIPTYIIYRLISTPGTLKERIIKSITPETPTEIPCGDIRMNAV
UniProt P08908, whole entry: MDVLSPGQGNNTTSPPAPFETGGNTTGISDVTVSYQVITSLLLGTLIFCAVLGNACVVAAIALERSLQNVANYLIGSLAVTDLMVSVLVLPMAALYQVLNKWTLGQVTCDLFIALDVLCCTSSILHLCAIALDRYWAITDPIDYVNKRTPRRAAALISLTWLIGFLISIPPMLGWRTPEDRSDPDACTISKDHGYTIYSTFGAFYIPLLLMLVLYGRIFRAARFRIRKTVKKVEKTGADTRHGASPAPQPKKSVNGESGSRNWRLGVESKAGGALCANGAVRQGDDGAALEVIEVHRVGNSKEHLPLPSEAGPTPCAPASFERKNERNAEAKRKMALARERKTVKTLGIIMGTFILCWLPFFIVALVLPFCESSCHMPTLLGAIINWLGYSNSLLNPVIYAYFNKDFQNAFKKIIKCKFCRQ

Read-outs that look alike come from different tables or passages of the source.

The target in one experiment is T1, serotonin transporter (Rattus norvegicus, UniProt P31652).
T1 construct: frontal cortical membranes prepared from male Sprague-Dawley rats; from tissue; host or cells: frontal cortex membranes of male Sprague-Dawley rats
In words: Serotonin transporter affinity, 3H-paroxetine binding to frontal cortical membranes. More on the design: species or system Sprague-Dawley rats. To be noted: 3H-paroxetine 0.1 nM, head also allows % Inh. @.1 µM.

In the next experiment the target is T2, human 5-HT1A receptor (Homo sapiens, UniProt P08908).
T2 construct: expressed in transfected cells
Nature of the experiment: 5-HT1A receptor binding assay with [3H]8-OH-DPAT in CHO cell membranes. The method, then: A stable Chinese hamster ovary cell line expressing the human 5-HT1A receptor subtype (5H-HT1A.CHO cells) was employed throughout this procedure. Cells were maintained in DMEM supplemented with 10% fetal calf serum, non-essential amino acids and penicillin/ streptomycin.
Cells were grown to 95-100% confluency as a monolayer before membranes were harvested for binding studies. Cells were gently scraped from the culture plates, transferred to centrifuge tubes, and washed twice by centrifugation (at 2000 rpm for 10 min., 4°C) in buffer (50 mM Tris; pH 7.5). The resulting pellets were aliquoted and stored at -80•C until needed. On the day of assay, the cells were thawed on ice, and resuspended in buffer. Studies were conducted using [^3H]8-OH-DPAT as the radioligand. The binding assay was performed in 96 well microtiter plates in a final total volume of 250 µL of buffer. […] Non-specific binding was determined in the presence of 10 µM 5HT. Saturation analysis was conducted by using [^3H]8-OH-DPAT at concentrations ranging from 0.3-30 nM. Following a 30 minute incubation at room temperature, the reaction was terminated by the addition of ice cold buffer and rapid filtration using a M-96 Brandel Cell Harvester through a GF/B filter presoaked for 30 minutes in 0.5% polyethyleneimine.

Where [1] appears, read: [3H]8-OH-DPAT 1.5 nM, membranes of CHO cells expressing human 5-HT1A receptor, read-out: 5-HT1A (Ki).

In the case of `c1ccc(N2CC(CNCCCc3c[nH]c4ccccc34)Oc3ccccc32)cc1` (centres unmarked) [Example 7, [3-(1H-Indol-3-yl)-propyl]-4-phenyl-3,(4-dihydro-2H-benzo[1,4]oxazin-2-yl-methyl)-amine], the affinity on serotonin transporter (ST (Ki, nM, % Inh. @.1 µM)) corresponds to a Ki of 23 nM.

Regarding `Fc1ccc2[nH]cc(CCCNCC3CN(c4ccccc4)c4ccccc4O3)c2c1` (centres unmarked) [Example 11, [3-(5-Fluoro-1H-indol-3-yl)-propyl]-(4-phenyl-3,4-dihydro-2H-benzo[1,4]oxazin-2-yl-methyl)-amine], at human 5-HT1A receptor (5-HT1A (Ki, nM)), affinity was put at a Ki of 7.14 nM.

In the case of `Fc1ccc2[nH]cc(CCCNCC3COc4ccccc4N3)c2c1` (centres unmarked) [Example 20, (3,4-Dihydro-2H-benzo[1,4]oxazin-3-yl-methyl)-[3-(5-fluoro-1H-indol-3-yl)propyl]-amine], the Ki (as a rule, a dissociation constant, usually derived from enzyme kinetics or from competition with a known ligand) at serotonin transporter (read-out: ST (Ki, nM, % Inh. @.1 µM)) came out at 23 nM. Regarding `Fc1ccc2[nH]cc(CCCNCC3CN(c4ccccc4)c4ccccc4O3)c2c1` (single isomer, unassigned; (+)) [Example 19], the Ki at human 5-HT1A receptor (setting [1]) was 63.4 nM.

`Fc1ccc2[nH]cc(CCCNCC3CN(c4ccccc4)c4ccccc4O3)c2c1` (single isomer, unassigned; (-)) [Example 18]: the Ki on human 5-HT1A receptor (setting [1]) came to 18.1 nM.
